The nature of the test: Aminotransferase activity of soluble protein extracts (LC/MS of FMOC amino acids). The test is classed as biochemical. As to conditions: 10 mM substrate; pyruvate (plant enzymes) or α-ketoglutarate (gabT) as acceptor; 37° C., 90 min. The procedure: Freshly transformed E. coli colonies containing pTrcHis2-TOPO with aminotransferase inserts or pTrcHis2/lacZ were inoculated into 30 mL of LB liquid media containing ampicillin (100 μg/μL) and grown overnight at 37° C. with shaking at 250 rpm. The next morning, the cultures were induced with IPTG at a final concentration of 0.8 mM. The cultures were grown at 37° C. with shaking at 250 rpm for 3 hours. The cultures were then centrifuged at 8,000× g for 10 min and the supernatant was decanted; the resulting pellet was resuspended in 2 mL of buffer (100 mM Phosphate, 1 mM DTT, pH 7.5). Cells were broken by passage through a french press and the resulting extract was centrifuged at 13,000× g for 12 min at 4° C. […]
Soluble protein extracts were assayed for aminotransferase activity. […] The amino acid products of the enzymatic reaction were analyzed as their FMOC (9-fluorenylmethoxycarbonyl) derivatives using an LC/MS system. […] This mixture was diluted 2 fold and then analyzed using an LC/MS coupled system. […] In the LC/MS analysis of the assays using gabT, glutamate eluted at 13 min in a solvent of 17.5% acetonitrile and was detected as the FMOC-sodium ion (m/z 392). […] Alanine eluted at 24 min in a solvent of 35% acetonitrile and was detected as the FMOC-sodium ion (m/z 334).

The record followed here is patent US20030170653A1, “Biological method for the production of tuliposide A and its intermediates” (priority 2001, published 2003).

B1: e20: γ-aminobutyrate aminotransferase homolog from tulip pistil (SEQ ID NO: 8) (protein)
chain: MMPLACSDPSPPPRFRGHAMLAPFTAGWQTADTEPFIITRSEGCYVYDITGKKYLDSLAGLWCTALGGSEPRLIAAATEQLNQLPFYHSFWNRTTKPSLDLATELIAYFTPKKMGKVFFTNSGSEANDSQVKLVWYYNNALGRPNKKKFIARTKSYHGVTLTSASLTGLPALHQKFDLPLPFVLHTDCPHYWRFHLPGETEEEFSTRLANNLEKLILTEGPETIAAFIAEPVMGAGGVIPPPKTYFEKIQAVIKKYDILFIADEVVTAFGRLGTMFGCEKYNIQPDLVTIAKALSSGYLPIGAILVSPEIAEVVHSQSNKLGSFSHGFTYSGHPVACAVALEALKIYKERDIPGHVQTISPRFQDGLRAFSDSSIIGEIRGTGLILATEFTDNKSPNDLFPSEWGVGAIFGAECAKRGLLVRVAGDNIMMSPPLVISPKEVDELVSIYGEALKCTEERVAELKDSEIAVAK
modifications: tulip pistil
Regarding B1, the “transamination of α-methylene-γ-aminobutyrate” value is listed as “able to transaminate”.

B2: gabT: γ-aminobutyrate aminotransferase from Escherichia coli (SEQ ID NO: 12) (protein, listed as Escherichia coli)
chain: MNSNKELMQRRSQAIPRGVGQIHPIFADRAENCRVWDVEGREYLDFAGGIAVLNTGHLHPKVVAAVEAQLKKLSHTCFQVLAYEPYLELCEIMNQKVPGDFAKKTLLVTTGSEAVENAVKIARAATKRSGTIAFSGAYHGRTHYTLALTGKVNPYSAGMGLMPGHVYRALYPCPLHGISEDDAIASIHRIFKNDAAPEDIAAIVIEPVQGEGGFYASSPAFMQRLRALCDEHGIMLIADEVQSGAGRTGTLFAMEQMGVAPDLTTFAKSIAGGFPLAGVTGRAEVMDAVAPGGLGGTYAGNPIACVAALEVLKVFEQENLLQKANDLGQKLKDGLLAIAEKHPEIGDVRGLGAMIAIELFEDGDHNKPDAKLTAEIVARARDKGLILLSCGPYYNVLRILVPLTIEDAQIRQGLEIISQCFDEAKQ
On to B2, for which the “transamination of α-methylene-γ-aminobutyrate” value is on record as “able to transaminate”.
